# In ChEMBL document CHEMBL3621203, “Discovery and Structure Enabled Synthesis of 2,6-Diaminopyrimidin-4-one IRAK4 Inhibitors” (ACS Med Chem Lett, 2015):
# Amino acid sequences for entries named in this document (tags omitted).
# UniProt Q9NWZ3, whole entry: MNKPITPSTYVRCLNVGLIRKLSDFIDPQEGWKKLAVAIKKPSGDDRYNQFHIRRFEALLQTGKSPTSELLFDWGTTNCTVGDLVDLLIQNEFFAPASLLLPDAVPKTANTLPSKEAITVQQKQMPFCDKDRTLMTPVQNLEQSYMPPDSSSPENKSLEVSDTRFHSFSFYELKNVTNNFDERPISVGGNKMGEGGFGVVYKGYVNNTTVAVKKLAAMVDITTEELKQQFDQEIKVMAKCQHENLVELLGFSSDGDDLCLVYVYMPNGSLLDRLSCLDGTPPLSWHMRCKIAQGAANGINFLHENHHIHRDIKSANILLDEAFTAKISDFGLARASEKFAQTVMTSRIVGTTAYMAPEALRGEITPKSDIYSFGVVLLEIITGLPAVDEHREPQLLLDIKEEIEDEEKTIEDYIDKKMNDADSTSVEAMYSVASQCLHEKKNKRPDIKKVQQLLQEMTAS
# Columns and labels:
# [1] = target: T1, Interleukin-1 receptor-associated kinase 4 (Homo sapiens, UniProt Q9NWZ3)
# [2] = target: T1, Interleukin-1 receptor-associated kinase 4; remark: listed apart in the source
smiles,measurement,setting,value
O=c1[nH]c(N2CCOCC2)nc(N[C@@H]2CCCNC2)c1-c1nc2ccccc2s1,IC50,[1],1.9 µM
same,IC50,[2],4.2 µM
